The list shows a part of the results, in another mix than the full data. Some salts or complexes appear as unconnected parts, following the source record. Activity calls are given as the source filed them. Calls come from the whole dose curve; as a rule, active = well fitted activation curve with a large enough effect; inconclusive = small, poorly fitted or top-dose-only effect, or another doubt; inactive = no such curve, though single readings can be large or run the other way.
Assay: Activators of T cell receptors: qHTS campaign; note: % of control where 0% means no effect
Details: primary human leukocytes, anti-CD3, IL-2 HTRF, 48 h; at 9.22 µM unless noted
Source text: Normally activation of naive T cells requires two signals. 1. A signal through the T cell receptor (TCR) which provides antigen specificity to the response. 2. Signals through co-stimulatory molecules, which are necessary for proliferation, survival and cytokine production. In the absence of co-stimulatory signals T cells are not effectively activated, and may even be rendered anergic or unresponsive to subsequent signaling. This lack of costimulation has been shown in multiple model systems to be a major factor in the limited strength and effectiveness of anti-tumor T cell responses. The goal of this project is to identify small molecule compounds that will stimulate T cell activation in the presence of TCR signaling but in the absence of co-stimulatory signals, thereby allowing activation of naive T cells in the absence of co-stimulation. Identification of such compounds would have clear experimental and clinical applications in instances where desirable antigen-specific immune responses are not generated due to a lack of co-stimulation, for example in the generation of anti-tumor responses. In collaboration between the National Cancer Institute and NIH Chemical Genomics Center, a high-throughput amenable screen was developed to discover small molecules that co-stimulate and activate human T cell receptors. The screen will be carried out using a novel homogeneous time resolved fluorescence energy transfer (HTRF) assay to measure production of the cytokine IL-2 by activated T cells and will be tested against the NIH Molecular Libraries Small Molecule Repository (MLSMR). NIH Chemical Genomics Center [NCGC] NIH Molecular Libraries Probe Centers Network [MLPCN] MLPCN Grant: MH090820-01 Assay Submitter (PI): Richard Hodes, National Cancer Institute, NIH
Primary human leukocytes are incubated with a-CD3 beads and compounds for 48 hr. The amount of secreted IL-2 is then assayed with a HTRF IL-2 kit. The presence of IL-2 cytokine captures the detection reagents and brings the a-IL-2-K and a-IL-2-d2 into close proximity. Upon excitation with 320nm light, the europium cryptate is capable of transferring energy to acceptor molecules within close proximity, resulting in acceptor molecule emission at 665nm.

Compound | activation of IL-2 secretion
Cc1ccccc1NC1(C#N)CCN(Cc2ccccc2)CC1 | inactive: -2.67%
Cn1c(=O)[nH]cc(N(CCCl)CCCl)c1=O | inactive: 2.07%
CN(C)c1ccc(C(=O)NCC2(N3CCCCC3)CCCCC2)cc1 | inactive: 4.2%
O=C(NCC1(N2CCCCC2)CCCCC1)c1ccco1 | inactive: 0.495%
COc1cc(OC)cc(C(=O)NCC2(N3CCCCC3)CCCCC2)c1 | inactive: -5.68%
CC(=O)N(c1ccccc1)C1CCNCC1 | inactive: 1.84%
Cc1ccc(NC2(C#N)CCN(Cc3ccccc3)CC2)cc1 | inactive: 4.17%
Fc1ccccc1NC1CCN(Cc2ccccc2)CC1 | inactive: 5.23%
Cc1ccc(C(=O)NCC2(N3CCCCC3)CCCCC2)o1 | inactive: -7.49%
CCC(CO)(C(=O)OC1CN2CCC1CC2)c1ccccc1 (stereo not given) | inactive: -3.01%
COc1cccc(C(=O)N(c2cc(C)cc(C)c2)C2CCN(C(=O)OC(C)(C)C)CC2)c1 | inactive: -10.1%
COc1cc(OC)cc(C(=O)NCC2(N3CCOCC3)CCCCC2)c1 | inactive: 2.87%
CCOc1ncccc1C(=O)NCC1(N2CCOCC2)CCCCC1 | inactive: 1.43%
CCCOc1ccc(C(=O)NCC2(N(C)C)CCCCC2)cc1 | inactive: -0.164%
O=C(O)C1(Nc2ccccc2)CCN(Cc2ccccc2)CC1 | inactive: -2.41%
CC(C)(C)OC(=O)N1CCC(Nc2ccccc2)CC1 | inactive: 1.08%
N/C(=N\O)c1c(N)no[n+]1[O-] | inactive: 2.79%
O=C(O)c1cccc(Nc2c([N+](=O)[O-])cc([N+](=O)[O-])cc2[N+](=O)[O-])c1 | inactive: -1.19%
O=C(OC1CN2CCC1CC2)C1c2ccccc2C=Cc2ccccc21 (stereo not given) | inactive: 0.0201% [at 46.1 µM]
CCc1cc(C(=O)NCC2(N3CCCCC3)CCCCC2)sc1C | inactive: -5.48%
O=C(NCC1(N2CCOCC2)CCCCC1)c1cc(Br)ccc1Cl | inactive: 4.15%
COc1ccc(C(=O)NCC2(N3CCOCC3)CCCCC2)cc1OC | inactive: -1.05%
Cc1cc(N(CCCl)CCCl)ccc1C=O | inactive: -5.36%
c1ccc(CN2CCC(Nc3ccccc3)CC2)cc1 | inactive: -2.38%
CN(C)C1(CNC(=O)c2cccc(C#N)c2)CCCCC1 | inactive: -0.684%

Compound | activation of IL-2 secretion
CC(C)(C)OC(=O)N1CCC(N(C(=O)c2ccccc2)c2ccc(Cl)cc2)CC1 | inactive: -5.26%
N#Cc1ccc(C(=O)NCC2(N3CCCCC3)CCCCC2)cc1 | inactive: -2.45%
CCOC(=O)C(CC)C1=NC(C)(C)Cc2ccccc21.O=[N+]([O-])c1cc([N+](=O)[O-])c(O)c([N+](=O)[O-])c1 (stereo not given) | inactive: -1.32%
O=C(NCC1(N2CCCCC2)CCCCC1)c1cccc(C(F)(F)F)c1 | inactive: 4.43%
O=[N+]([O-])c1cc([N+](=O)[O-])c(NCC2CCS(=O)(=O)C2)c([N+](=O)[O-])c1 (stereo not given) | inactive: -0.688%
CC(C)c1ccc(C(=O)NCC2(N3CCOCC3)CCCCC2)cc1 | inactive: -0.052%
COc1ccc(NC2CCN(C(=O)OC(C)(C)C)CC2)cc1 | inactive: 7.39%
CN1CCN(CCOC(=O)C(O)(c2ccccc2)c2ccccc2)CC1 | inactive: -4.82% [at 46.1 µM]
O=C(NCC1(N2CCOCC2)CCCCC1)c1cc(=O)[nH]c2ccccc12 | inactive: -2.74%
COc1cc(C(=O)NCC2(N3CCCCC3)CCCCC2)ccc1OC(F)F | inactive: -2.51%
O=C(NCC1(N2CCCCC2)CCCCC1)c1ccc(OC(F)F)cc1 | inactive: -7.02%
CSc1ccc(C(=O)NCC2(N3CCOCC3)CCCCC2)cc1 | inactive: -9.99%
O=C(NCC1(N2CCCCC2)CCCCC1)c1cccc([N+](=O)[O-])c1 | inactive: -2.38%
N#CC1(Nc2ccccc2)CCN(CCc2ccccc2)CC1 | inactive: 6.65%
CCN1CCC(Nc2ccc(Cl)cc2)CC1 | inactive: 5.54%
COc1ccc2c(c1O)-c1c(O)c(OC)cc3c1[C@H](C2)[N+](C)(C)CC3.O=[N+]([O-])c1cc([N+](=O)[O-])c([O-])c([N+](=O)[O-])c1[O-] | inactive: 1.52%
O=C(NCC1(N2CCCCC2)CCCCC1)c1cncc(Br)c1 | inactive: 3.79%
CN1CCC(Nc2cccc(F)c2)CC1 | inactive: 0.595%
O=C(OC1CN2CCC1CC2)c1ccc([N+](=O)[O-])cc1 (stereo not given) | inactive: 8.06%
CCCOc1ccc(C(=O)NCC2(N(C)C)CCCCC2)cc1OC | inactive: 5.57%
CN(C)c1cccc(C(=O)NCC2(N3CCCCC3)CCCCC2)c1 | inactive: -0.193%
O=[N+]([O-])c1cc([N+](=O)[O-])c(OC2CCCCC2O)c([N+](=O)[O-])c1 (stereo not given) | inactive: -1.25%
COc1ccc(CN(CCCl)CCCl)cc1Cl | inactive: -1.2%
CC(C)c1ccc(NC2CCN(C(=O)OC(C)(C)C)CC2)cc1 | inactive: 1.65%
COc1cc(OC)c(C(=O)NCC2(N(C)C)CCCCC2)cc1OC | inactive: -2.85%

Compound | activation of IL-2 secretion
O=C(NCC1(N2CCOCC2)CCCCC1)c1cc2ccccc2o1 | inactive: -4.46%
Cc1cc(C)cc(N(C(=O)c2ccccc2)C2CCN(C(=O)OC(C)(C)C)CC2)c1 | inactive: 3.08%
O=C(NCC1(N2CCCCC2)CCCCC1)c1ccc(Cl)nc1 | inactive: 3.24%
CCOC(=O)N1CCC(Nc2ccc(OC)cc2)CC1 | inactive: -2.42%
O=C1C(O)=C([N+](=O)[O-])C(=O)C(O)=C1[N+](=O)[O-] | inactive: 0.731%
COc1ccc(Cl)cc1C(=O)NCC1(N2CCOCC2)CCCCC1 | inactive: 7.53%
O=C(OC1CN2CCC1CC2)C1c2ccccc2Oc2ccccc21 (stereo not given) | inactive: -4.69%
N#CC1(Nc2ccccc2)CCN(Cc2ccccc2)CC1 | inactive: 2.15%
O=C(NCC1(N2CCCCC2)CCCCC1)c1ccc(Cl)s1 | inactive: -0.289%
O=C(NCC1(N2CCCCC2)CCCCC1)c1cccs1 | inactive: 2.11%
O=C(NCC1(N2CCCCC2)CCCCC1)c1ccc(=O)[nH]c1 | inactive: -4.94%
CC(C)(C)OC(=O)N1CCC(N(C(=O)c2ccccc2)c2ccc(F)cc2)CC1 | inactive: -0.562%
COc1ccc(C(=O)NCC2(N3CCCCC3)CCCCC2)c(OC)c1OC | inactive: 3.2%
COc1ccc(C(=O)NCC2(N3CCCCC3)CCCCC2)cc1 | inactive: 5.65%
Cc1cccc(NC2(C#N)CCN(Cc3ccccc3)CC2)c1 | inactive: -1.61%
CSc1ccccc1C(=O)NCC1(N2CCCCC2)CCCCC1 | inactive: -3.77%
COc1cc(C(=O)NCC2(N(C)C)CCCCC2)ccc1OC(F)F | inactive: -0.263%
CCOC(=O)N1CCC(Nc2cccc(C)c2)CC1 | inactive: 5.2%
CCOc1ccc(C)cc1CN(CCCl)CCCl | inactive: 2.11%
O=C1CCN(Cc2ccccc2)CC1 | inactive: 1.97%
CCOC(=O)N1CCC(Nc2ccc(F)cc2)CC1 | inactive: -1.79%
COc1ccc(NC2CCN(CCc3ccccc3)CC2)c(OC)c1 | inactive: 7.38%
O=C(NCC1(N2CCCCC2)CCCCC1)c1ccc(F)cc1 | inactive: -6.8%
CCCCOc1ccc(C(=O)NCC2(N3CCOCC3)CCCCC2)cc1 | inactive: -6.37%
O=P1(N(CCCl)CCCl)SCCCS1 | inactive: -3.67%

Source: PubChem BioAssay AID504894 (National Center for Advancing Translational Sciences (NCATS), 2011)
